The chains behind the UniProt entries cited, without tags or fusion partners. Residues count along the entry.
UniProt Q00535, whole entry: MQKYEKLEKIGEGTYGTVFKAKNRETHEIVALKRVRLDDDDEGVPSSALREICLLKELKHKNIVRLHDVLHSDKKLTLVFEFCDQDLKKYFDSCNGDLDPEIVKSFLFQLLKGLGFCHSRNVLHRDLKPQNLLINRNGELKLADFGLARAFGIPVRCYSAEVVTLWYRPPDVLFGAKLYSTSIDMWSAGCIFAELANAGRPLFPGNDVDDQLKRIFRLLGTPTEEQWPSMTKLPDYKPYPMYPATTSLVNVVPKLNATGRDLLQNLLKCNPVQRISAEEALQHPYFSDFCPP
UniProt Q15078, 99-307 partner limits assumed: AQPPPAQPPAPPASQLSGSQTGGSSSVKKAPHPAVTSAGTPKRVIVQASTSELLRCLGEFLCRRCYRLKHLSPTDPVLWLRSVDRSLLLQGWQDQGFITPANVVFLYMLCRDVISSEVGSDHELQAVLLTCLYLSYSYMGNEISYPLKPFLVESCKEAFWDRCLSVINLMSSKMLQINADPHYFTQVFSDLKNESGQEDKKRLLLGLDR

In patent publication US20130225591A1, “IMIDOTHIAZOLE KINASE INHIBITORS” (priority 2009, published 2013):

Molecular target: CDK5-p25 kinase (Homo sapiens, UniProt Q00535)
Test: CDK5-p25 kinase enzymatic assay
Conditions: read-out: IC50 potency, CDK5-p25 kinase enzymatic assay, <50 nM, 5 uM ATP, 0.3 nM CDK5-p25
Experimental: CDK5-p25 kinase (Invitrogen PV4677) enzymatic activity was measured using electrophoretic separation and fluorescent detection to monitor phosphorylation of a fluorescently labeled histone H1-derived peptide substrate, FL29 (5-FAM-GGGPATPKKAKKL-CONH2, Caliper #760429)
First, 0.25 uL of serially diluted compound in DMSO at 100× concentration was transferred into each well of a 384-well polystyrene assay plate. To this was added 15 uL of a 1.67× enzyme solution (500 pM enzyme, 1 mM DTT (Sigma D9779), 1× reconstitution buffer with protease inhibitor (Caliper #700329 proprietary formulation)), followed by centrifugation for 1 min at 1000 rpm, and incubation for 5-15 min at room temperature to allow binding of compound to enzyme. To initiate the reaction, 10 uL of substrate/ATP mix (245 mM Hepes pH 7.5, 0.003% Brij 35, 0.004% Tween, 12.75 uM ATP, 3.75 uM FL29 peptide) were added to each well, followed by centrifugation at 1000 rpm for 1 min. […]
After incubation, reactions were quenched by the addition of 45 uL Caliper termination solution (Caliper proprietary formula), followed by centrifugation at 1000 rpm for 1 min. Extent of reaction (percentage conversion of substrate to phosphorylated product) was then measured using the Caliper EZ II reader. […] The curve was analyzed using a four parameter logistical fit to calculate IC50 values.

In the case of `O=C(Cc1ccc(N2CCNC2=O)cc1)Nc1ncn2c(C(F)(F)F)csc12`, the IC50 is reported as less than 50 nM.
